Two molecules from ChEMBL document CHEMBL4311981, “Synthesis, anticancer activity, and molecular modeling of 1,4-naphthoquinones that inhibit MKK7 and Cdc25” (Eur J Med Chem, 2019) can be followed below.

Activity calls are given as the source filed them. The calls are words filed in the database; no cut-off is given here.

For test [1], the target named is T1, Dual specificity mitogen-activated protein kinase kinase 7 (Homo sapiens, UniProt O14733).
T1 sequence (O14733 whole entry): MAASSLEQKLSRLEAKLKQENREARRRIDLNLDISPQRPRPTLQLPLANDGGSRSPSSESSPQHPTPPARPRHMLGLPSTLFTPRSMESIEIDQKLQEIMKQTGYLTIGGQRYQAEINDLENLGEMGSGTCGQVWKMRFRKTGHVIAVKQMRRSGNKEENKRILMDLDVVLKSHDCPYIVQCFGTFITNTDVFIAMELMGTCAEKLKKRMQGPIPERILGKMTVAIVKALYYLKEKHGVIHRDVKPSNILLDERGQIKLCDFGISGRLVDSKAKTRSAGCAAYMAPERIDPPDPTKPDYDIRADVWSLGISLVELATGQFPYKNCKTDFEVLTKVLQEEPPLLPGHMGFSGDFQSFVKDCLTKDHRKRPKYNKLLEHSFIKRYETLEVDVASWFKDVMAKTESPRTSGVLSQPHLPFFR
Put plainly: biochemical.

The target of test [2] is T2, M-phase inducer phosphatase 1 (Homo sapiens, UniProt P30304).
T2 sequence (P30304 whole entry): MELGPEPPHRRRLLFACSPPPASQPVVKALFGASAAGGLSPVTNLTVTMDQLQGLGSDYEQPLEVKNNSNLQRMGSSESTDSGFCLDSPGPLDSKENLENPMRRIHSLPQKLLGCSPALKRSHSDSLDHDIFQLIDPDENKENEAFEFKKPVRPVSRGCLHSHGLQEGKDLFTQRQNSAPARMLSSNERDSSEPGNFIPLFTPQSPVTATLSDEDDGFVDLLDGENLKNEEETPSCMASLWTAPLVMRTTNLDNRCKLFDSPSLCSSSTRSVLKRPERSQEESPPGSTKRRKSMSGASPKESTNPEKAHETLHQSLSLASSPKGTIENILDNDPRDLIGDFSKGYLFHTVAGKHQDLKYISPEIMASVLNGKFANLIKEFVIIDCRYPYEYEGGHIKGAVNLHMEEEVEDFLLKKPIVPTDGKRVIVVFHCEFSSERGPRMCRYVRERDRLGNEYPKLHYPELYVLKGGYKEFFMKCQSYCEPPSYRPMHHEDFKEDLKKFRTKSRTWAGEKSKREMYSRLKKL

For test [3], the target named is T3, Dual specificity mitogen-activated protein kinase kinase 7 (Homo sapiens) (UniProt O14733).
T3 sequence (whole entry): T1 sequence (O14733 whole entry)
The test can be described thus: Binding affinity to MKK7 (unknown origin) expressed in HEK293 cells assessed as dissociation constant at <30 uM by kinomescan method. The test is classed as cell-based.

The target of test [4] is T4, Neutrophil elastase (Homo sapiens) (UniProt P08246).
T4 sequence (whole entry): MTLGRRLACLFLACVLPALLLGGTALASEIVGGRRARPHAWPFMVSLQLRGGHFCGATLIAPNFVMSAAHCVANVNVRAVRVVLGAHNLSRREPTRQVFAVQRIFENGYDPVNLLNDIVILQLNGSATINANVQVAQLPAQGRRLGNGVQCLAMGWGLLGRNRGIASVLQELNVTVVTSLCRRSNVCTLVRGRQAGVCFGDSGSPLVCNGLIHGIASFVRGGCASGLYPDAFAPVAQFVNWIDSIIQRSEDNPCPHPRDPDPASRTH
The test can be described thus: Inhibition of recombinant HNE (unknown origin) at <50 uM using N-methylsuccinyl-Ala-Ala-Pro-Val-7-amino-4-methylcoumarin, as a substrate measured every 30 sec for 10 mins by fluorometric assay.

Test [5] has as its target T5, M-phase inducer phosphatase 2 (Homo sapiens, UniProt P30305).
T5 sequence (P30305 whole entry): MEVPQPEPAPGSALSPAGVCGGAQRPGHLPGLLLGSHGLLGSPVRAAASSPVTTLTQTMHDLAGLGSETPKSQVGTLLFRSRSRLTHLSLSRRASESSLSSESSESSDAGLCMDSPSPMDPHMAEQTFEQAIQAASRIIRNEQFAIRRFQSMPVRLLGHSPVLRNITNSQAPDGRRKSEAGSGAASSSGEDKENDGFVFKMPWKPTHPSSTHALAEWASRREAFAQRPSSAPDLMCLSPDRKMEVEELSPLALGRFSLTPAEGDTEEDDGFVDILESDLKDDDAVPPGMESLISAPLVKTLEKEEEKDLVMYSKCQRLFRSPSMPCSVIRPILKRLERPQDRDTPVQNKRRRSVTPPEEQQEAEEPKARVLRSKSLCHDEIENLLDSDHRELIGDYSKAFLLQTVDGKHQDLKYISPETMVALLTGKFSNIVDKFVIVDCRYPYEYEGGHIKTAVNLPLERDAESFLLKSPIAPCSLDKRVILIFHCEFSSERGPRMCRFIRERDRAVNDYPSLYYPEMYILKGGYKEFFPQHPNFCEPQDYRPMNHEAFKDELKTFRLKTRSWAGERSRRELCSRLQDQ

For `CC1=CC(=O)c2c(O)cccc2C1=O` [PLUMBAGIN], the Kd in test [1] came to 14 µM. Besides, the IC50 in test [2] was determined as 0.7 µM.

As for `O=C1C(O)=C(CN(CCCl)CCCl)C(=O)c2ccccc21`, in test [3], the result was inactive. Further, the inhibition result in test [4] is “inactive”. In test [5], this molecule came in with an IC50 of 12.7 µM.

Broadly, the Kd is the concentration at which binding is half-saturated. A high value points to a looser complex. As a reminder, the IC50 is the midpoint of a concentration-inhibition curve. Low readings indicate greater potency in that assay, high ones weaker potency in that assay.
